PMC9916806, “Tachykinin Receptor-Selectivity of the Potential Glioblastoma-Targeted Therapy, DOTA-[Thi^8,Met(O2)^11]-Substance P” (International Journal of Molecular Sciences, 2023)

Protein sequences, listed by entry. Tags and fused reporters are not part of them.
UniProt P21452, whole entry: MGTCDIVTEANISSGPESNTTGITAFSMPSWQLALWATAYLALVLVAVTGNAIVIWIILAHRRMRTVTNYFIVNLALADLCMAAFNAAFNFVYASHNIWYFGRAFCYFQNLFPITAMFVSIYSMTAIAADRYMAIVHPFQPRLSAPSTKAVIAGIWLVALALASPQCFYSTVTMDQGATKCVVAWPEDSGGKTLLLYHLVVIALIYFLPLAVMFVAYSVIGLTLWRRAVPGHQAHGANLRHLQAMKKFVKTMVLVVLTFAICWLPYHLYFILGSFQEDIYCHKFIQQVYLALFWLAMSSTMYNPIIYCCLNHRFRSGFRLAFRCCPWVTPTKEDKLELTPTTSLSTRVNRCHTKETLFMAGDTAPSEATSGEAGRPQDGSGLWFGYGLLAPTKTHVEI

Biological target: T1, NK2R (Homo sapiens, UniProt P21452)
T1 construct: host or cells: HEK293-T
Assay: IP accumulation assay, NK2R activation (HEK293-T cells)
Type: cell-based
Settings: 1 µM SP; Supplemental Figure S3, % of cognate native ligand (NKA) response; single experiment (n=1); also ref [11]
From the text: pcDNA mammalian expression vectors encoding human NK3R (GenBank accession number: AY462098), NK2R (GenBank accession number: AY322545), NK1R (GenBank accession number: AY462099) and MRGPRX2 (GenBank accession number: NM_054030) were obtained from the Bloomsburg University cDNA Resource Center (www.cdna.org [accessed on 18 October 2018]). The NK1R, NK2R and NK3R vectors included an N-terminal 3xHA epitope tag. The empty vector, pcDNA3.1, was obtained from Thermo Fisher Scientific (Waltham, MA, USA). […] Talnetant was kindly supplied by Dr Mike Trower (NeRRe Therapeutics, Stevenage, UK).
Modified human embryonic kidney cells (HEK293-T; American Tissue and Cell Culture Collection), which provide a ‘blank’ background (with little/no endogenous tachykinin receptor nor MRGPRX2 expression) and stably express large T-antigen for optimal expression of exogenous proteins, were utilised. […]
The tachykinin receptors elicit intracellular signalling responses primarily through coupling to, and the activation of, Gαq/11 G proteins. […] These can be isolated using ion exchange chromatography and their radioactivity measured, with the amount of radiolabelled IP generated (i.e., the level of radioactivity measured) being proportional to the signalling activity of the receptor [48]. […]

CSCC[C@H](NC(=O)[C@H](CC(C)C)NC(=O)CNC(=O)[C@H](Cc1ccccc1)NC(=O)[C@H](Cc1ccccc1)NC(=O)[C@H](CCC(N)=O)NC(=O)[C@H](CCC(N)=O)NC(=O)[C@@H]1CCCN1C(=O)[C@H](CCCCN)NC(=O)[C@@H]1CCCN1C(=O)[C@@H](N)CCCNC(=N)N)C(N)=O [SP, Substance P]
NK2R response to SP: able to elicit a response
